Source: PubChem BioAssay (NCI)
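These data come from cells grown in 96-well plates and exposed to compound for 48 hours at five concentrations. GI50 is the concentration that inhibits growth by half. TGI is the concentration that stops growth completely.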

Legend:
Assay in all cases: NCI anticancer screen, dose series, 48 h
SK-MEL-2 melanoma = test system: SK-MEL-2 melanoma
MCF7 breast = test system: MCF7 breast
A549 NSCLC = test system: A549 NSCLC
SNB-75 CNS = test system: SNB-75 CNS
UACC-62 melanoma = test system: UACC-62 melanoma
LOX IMVI melanoma = test system: LOX IMVI melanoma
RXF 393 renal = test system: RXF 393 renal
UACC-257 melanoma = test system: UACC-257 melanoma
SK-MEL-28 melanoma = test system: SK-MEL-28 melanoma
OVCAR-5 ovarian = test system: OVCAR-5 ovarian
HT29 colon = test system: HT29 colon
HOP-92 NSCLC = test system: HOP-92 NSCLC
K-562 leukemia = test system: K-562 leukemia
IGROV1 ovarian = test system: IGROV1 ovarian
ACHN renal = test system: ACHN renal
HS 578T breast = test system: HS 578T breast
NCI-H322M lung = test system: NCI-H322M lung
HCT-116 colon = test system: HCT-116 colon
NCI/ADR-RES ovarian = test system: NCI/ADR-RES ovarian
SF-295 CNS = test system: SF-295 CNS
BT-549 breast = test system: BT-549 breast
TK-10 renal = test system: TK-10 renal
OVCAR-4 ovarian = test system: OVCAR-4 ovarian
UO-31 renal = test system: UO-31 renal
M14 melanoma = test system: M14 melanoma
COLO 205 colon = test system: COLO 205 colon
KM12 colon = test system: KM12 colon
HCC-2998 colon = test system: HCC-2998 colon
NCI-H460 lung = test system: NCI-H460 lung

**Q.** For `CC(=O)O[C@@H]1C[C@H]2O[C@@H]3C=C(C)CC[C@]3(C)[C@]1(C)[C@]21CO1`, which GI50 (SK-MEL-2 melanoma) is on record?
**A.** Its GI50 is 1.02 µM.

**Q.** What about the TGI (SK-MEL-2 melanoma) of the same compound?
**A.** Its TGI is 4.61 µM.

**Q.** And the GI50 (MCF7 breast)?
**A.** Its GI50 is 0.992 µM.

**Q.** What about the TGI (MCF7 breast) of the same compound?
**A.** Its TGI is greater than 33.3 µM.

**Q.** What about the GI50 (A549 NSCLC) of the same compound?
**A.** The GI50 was 1.81 µM.

**Q.** And the TGI (A549 NSCLC)?
**A.** The TGI was 21.5 µM.

**Q.** What about the GI50 (SNB-75 CNS) of the same compound?
**A.** The GI50 was 1.14 µM.

**Q.** And the TGI (SNB-75 CNS)?
**A.** Its TGI is 10.1 µM.

**Q.** What about the GI50 (UACC-62 melanoma) of the same compound?
**A.** The GI50 was 1.53 µM.

**Q.** What about the TGI (UACC-62 melanoma) of the same compound?
**A.** The TGI was 8.37 µM.

**Q.** What about the GI50 (LOX IMVI melanoma) of the same compound?
**A.** The GI50 was 0.763 µM.

**Q.** And the TGI (LOX IMVI melanoma)?
**A.** Its TGI is 3.07 µM.

**Q.** What about the GI50 (RXF 393 renal) of the same compound?
**A.** Its GI50 is 1.75 µM.

**Q.** And the TGI (RXF 393 renal)?
**A.** Its TGI is 9.94 µM.

**Q.** And the GI50 (UACC-257 melanoma)?
**A.** The GI50 was 1.72 µM.

**Q.** And the TGI (UACC-257 melanoma)?
**A.** Its TGI is 15.1 µM.

**Q.** What about the GI50 (SK-MEL-28 melanoma) of the same compound?
**A.** The GI50 was 1.03 µM.

**Q.** What about the TGI (SK-MEL-28 melanoma) of the same compound?
**A.** Its TGI is 4.38 µM.

**Q.** What about the GI50 (OVCAR-5 ovarian) of the same compound?
**A.** Its GI50 is 6.59 µM.

**Q.** What about the TGI (OVCAR-5 ovarian) of the same compound?
**A.** The TGI was 24.2 µM.

**Q.** And the GI50 (HT29 colon)?
**A.** Its GI50 is 1.34 µM.

**Q.** And the TGI (HT29 colon)?
**A.** Its TGI is 9.5 µM.

**Q.** What about the GI50 (HOP-92 NSCLC) of the same compound?
**A.** The GI50 was 2.43 µM.

**Q.** What about the TGI (HOP-92 NSCLC) of the same compound?
**A.** Its TGI is 20.5 µM.

**Q.** And the GI50 (K-562 leukemia)?
**A.** Its GI50 is 1.34 µM.

**Q.** What about the TGI (K-562 leukemia) of the same compound?
**A.** The TGI was greater than 33.3 µM.

**Q.** What about the GI50 (IGROV1 ovarian) of the same compound?
**A.** The GI50 was 2.29 µM.

**Q.** And the TGI (IGROV1 ovarian)?
**A.** The TGI was 20 µM.

**Q.** And the GI50 (ACHN renal)?
**A.** Its GI50 is 2.03 µM.

**Q.** And the TGI (ACHN renal)?
**A.** Its TGI is 10.6 µM.

**Q.** What about the GI50 (HS 578T breast) of the same compound?
**A.** The GI50 was 1.65 µM.

**Q.** What about the TGI (HS 578T breast) of the same compound?
**A.** The TGI was 15.2 µM.

**Q.** And the GI50 (NCI-H322M lung)?
**A.** Its GI50 is 1.61 µM.

**Q.** What about the TGI (NCI-H322M lung) of the same compound?
**A.** The TGI was 15.7 µM.

**Q.** What about the GI50 (HCT-116 colon) of the same compound?
**A.** Its GI50 is 0.925 µM.

**Q.** And the TGI (HCT-116 colon)?
**A.** Its TGI is 5.64 µM.

**Q.** And the GI50 (NCI/ADR-RES ovarian)?
**A.** Its GI50 is 1.66 µM.

**Q.** And the TGI (NCI/ADR-RES ovarian)?
**A.** The TGI was 18.5 µM.

**Q.** What about the GI50 (SF-295 CNS) of the same compound?
**A.** The GI50 was 4.85 µM.

**Q.** What about the TGI (SF-295 CNS) of the same compound?
**A.** The TGI was 22.2 µM.

**Q.** And the GI50 (BT-549 breast)?
**A.** Its GI50 is 1.47 µM.

**Q.** What about the TGI (BT-549 breast) of the same compound?
**A.** The TGI was 10.3 µM.

**Q.** And the GI50 (TK-10 renal)?
**A.** The GI50 was 6.55 µM.

**Q.** And the TGI (TK-10 renal)?
**A.** Its TGI is 23.3 µM.

**Q.** What about the GI50 (OVCAR-4 ovarian) of the same compound?
**A.** Its GI50 is 0.994 µM.

**Q.** And the TGI (OVCAR-4 ovarian)?
**A.** The TGI was 5.88 µM.

**Q.** What about the GI50 (UO-31 renal) of the same compound?
**A.** Its GI50 is 4.01 µM.

**Q.** And the TGI (UO-31 renal)?
**A.** Its TGI is 22.7 µM.

**Q.** What about the GI50 (M14 melanoma) of the same compound?
**A.** Its GI50 is 0.868 µM.

**Q.** And the TGI (M14 melanoma)?
**A.** The TGI was 2.75 µM.

**Q.** What about the GI50 (COLO 205 colon) of the same compound?
**A.** Its GI50 is 0.754 µM.

**Q.** What about the TGI (COLO 205 colon) of the same compound?
**A.** Its TGI is 1.96 µM.

**Q.** What about the GI50 (KM12 colon) of the same compound?
**A.** Its GI50 is 1.88 µM.

**Q.** What about the TGI (KM12 colon) of the same compound?
**A.** Its TGI is 16.7 µM.

**Q.** What about the GI50 (HCC-2998 colon) of the same compound?
**A.** The GI50 was 3.35 µM.

**Q.** What about the TGI (HCC-2998 colon) of the same compound?
**A.** Its TGI is 15.7 µM.

**Q.** And the GI50 (NCI-H460 lung)?
**A.** Its GI50 is 1.26 µM.
